Key:
[1] = tested on: community-acquired pneumonia (CAP); assay: Example 4 Phase 3 study, ceftaroline vs ceftriaxone in CAP, efficacy; format: in vivo, human; settings: Example 4, CE population
[2] = tested on: community-acquired pneumonia (CAP); assay: Example 5 Phase 3 study, ceftaroline vs ceftriaxone with adjunctive clarithromycin in CAP, efficacy; format: in vivo, human

For `CO/N=C(\C(=O)N[C@@H]1C(=O)N2C(C(=O)O)=C(CSc3nc(=O)c(=O)[nH]n3C)CS[C@H]12)c1csc(N)n1` [Ceftriaxone, ceftriaxone, reference compound], the “Per-subject Clinical Cure Rate at the EOT Visit” value (from here on “Per-subject Clinical Cure Rate”) [1] was 172 (80.0) %, the “Per-subject Clinical Cure Rate” value ([2]; Example 5, CE population) was 188 (80.3) % and the “Per-subject Clinical Cure Rate” value ([2]; Example 5, MITTE population) was 242 (80.7) %.

Reference: US20180303853A1, “COMPOSITIONS AND METHODS FOR TREATING BACTERIAL INFECTIONS USING CEFTAROLINE” (priority 2017, published 2018)
